This data set relates to Nc1ncnc2c1ncn2[C@@H]1O[C@H](COP(=O)(O)OP(=O)(O)OP(=O)(O)O)[C@@H](O)[C@H]1O. In words: purified protein. The settings on record: 0.5-20 mM ATP, 2 mM MgCl2, pH 7.5, 37 °C, 0.06% digitonin, no cholesterol.

As a reminder, the Km is the substrate concentration at which the rate is half of its maximum. In the case of human ABCG1 (G1) (Homo sapiens), the Km stood at 7.5 mM.

Source of the values: publication PMC8403869 (Proceedings of the National Academy of Sciences of the …, 2021).
